Where “and” joins values, the source holds several entries; their conditions need not be identical. Equal values may be shown once. Only a part is listed here, and it is no random draw. Some of these compounds have results that are not shown, active ones among them. Records with an inconclusive call do not appear. Calls of active or inactive are those of the source. Calls come from the whole dose curve; as a rule, active = well fitted inhibition curve with a large enough effect; inconclusive = small, poorly fitted or top-dose-only effect, or another doubt; inactive = no such curve, though single readings can be large or run the other way.
assay: qHTS of GLP-1 Receptor Inverse Agonists: Cytotox Screen; conditions: HEK293 cAMP-luciferase reporter cells, luminescence, 24 h; at 38.3 µM (top of the series);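 note: loss of luciferase light is scored as toxicity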
Text: The overall goal of this project was to develop a novel assay for discovering small molecule ligands for class B1 G protein-coupled receptors (GPCRs). Very few agonists (or inverse agonists) with generally weak activity for this entire group of physiologically important receptors are known to date. To establish proof-of-principle that this critical bottleneck can be overcome with a suitable screening approach, our studies focused on the class B1 receptor for glucagon-like peptide-1 (GLP-1R), a potential therapeutic target for diabetes and neurodegenerative disease.
The assay was developed using a cell-based functional readout. Toward this goal, stably transfected HEK293 cell clones were established that co-express (i) a cAMP-responsive luciferase reporter gene, and (ii) constitutively active GLP-1R that upon ligand interaction inhibit (inverse agonists) the luciferase activity. In addition, two control cell lines were developed: (i) one that express only the cAMP-responsive reporter gene to enable initial exclusion of GLP-1R independent effects of candidate probes; and (ii) one with the reported gene cloned with another constitutively active orphan receptor GPR119 to enable exclusion of GLP-1R independent inhibitor effects of candidate inverse agonists.
To that end, this assay was optimized for 1536-well format and screened against the MLSMR. Then the same collection was run in this cytotoxicity assay where inhibition was the undesired outcome.
NIH Molecular Libraries Probe Production Network [MLPCN]
NIH Chemical Genomics Center [NCGC]
PI Name: Martin Beinborn, Tufts Medical Center
Six ul of cell suspension (200 cells/uL in DMEM + 10% Nu serum + 1% pen-strep) is dispensed in a white solid 1536-well plate. The plates are incubated for 12 hours at 37 deg C at 5% CO2 followed by addition of 23 nL compounds. After 24 hr incubation at 37 deg C and 5% CO2, 3 uL of luciferase assay detection reagent is added. A luminescence read is obtained on the PerkinElmer Viewlux after 12 min incubation at room temperature.
% is set by controls: 0 for no effect and ±100 for the full control effect.

Row | Structure (SMILES) | activity change, negative = inhibition
1 | CN(C)C1(CNC(=O)c2ccc(Br)cc2)CCCCC1 | inactive: 0.77%
2 | COc1cc(C(=O)NCC2(N(C)C)CCCCC2)c([N+](=O)[O-])cc1OC | inactive: 1.74%
3 | COc1ccc(Cl)cc1C(=O)NCC1(N(C)C)CCCCC1 | inactive: 5.92%
4 | COc1cccc(C(=O)NCC2(N3CCCCC3)CCCCC2)c1 | inactive: -10.1%
5 | COc1ccc(C(=O)NCC2(N(C)C)CCCCC2)cc1Cl | inactive: 3.21%
6 | O=C(NCC1(N2CCCCC2)CCCCC1)c1cccc(Cl)c1 | inactive: -14.8%
7 | COc1cccc(C(=O)NCC2(N3CCOCC3)CCCCC2)c1 | inactive: -10.6%
8 | O=C(OC1CN2CCC1CC2)C(CO)(c1ccccc1)c1ccccc1 (stereo unspecified) | inactive: -0.539%
9 | CC(C)COc1ccc(C(=O)NCC2(N(C)C)CCCCC2)cc1 | inactive: -9.78%
10 | C=C(C)C#CC(O)(C(=O)OC1CCN(C)CC1)c1ccccc1 (stereo unspecified) | inactive: -5.32%
11 | COc1ccc(Br)c(C(=O)NCC2(N3CCCCC3)CCCCC2)c1 | inactive: -8.56%
12 | Cc1cccc(C(=O)NCC2(N(C)C)CCCCC2)c1 | inactive: -12.2%
13 | COc1cc(C(=O)NCC2(N(C)C)CCCCC2)cc(OC)c1OC | inactive: -0.371%
14 | O=C(OCCN1CCCC1)C(O)(c1ccccc1)c1ccccc1 | inactive: 1.73%
15 | CC(C)Oc1ccc(C(=O)NCC2(N(C)C)CCCCC2)cc1 | inactive: 5.48% and inactive: 5.14%
16 | CN(C)c1cccc(C(=O)NCC2(N(C)C)CCCCC2)c1 | inactive: -0.505%
17 | O=C(NCC1(N2CCCCC2)CCCCC1)c1cc([N+](=O)[O-])ccc1Cl | inactive: -26%
18 | CN1[C@@H]2CC[C@H]1CC(OC(=O)C(O)(c1ccccc1)c1ccccc1)C2 (stereo partly specified) | inactive: -5.84%

Row | Structure (SMILES) | activity change, negative = inhibition
19 | COc1cc(SC)ccc1C(=O)NCC1(N(C)C)CCCCC1 | inactive: 5.36%
20 | CN(C)C1(CNC(=O)c2cccc(Cl)c2)CCCCC1 | inactive: 0.064%
21 | CCN(CC)CC(C)C(C)OC(=O)C(O)(c1ccccc1)c1ccccc1 (stereo unspecified) | inactive: -1.23%
22 | CC(C)N1C(=O)CC2(CCN(CCOC(=O)C(O)(c3ccccc3)c3ccccc3)CC2)C1=O | inactive: -1.85%
23 | Cc1ccc(C(=O)NCC2(N3CCCCC3)CCCCC2)cc1 | inactive: 6.5%
24 | CN(C)C1(CNC(=O)c2ccccc2F)CCCCC1 | inactive: 8.59%
25 | CN(C)C1CCCC1OC(=O)C(O)(c1ccccc1)c1ccccc1 (stereo unspecified) | inactive: -18.1%
26 | CN(C)c1ccc(C(=O)NCC2(N(C)C)CCCCC2)cc1 | inactive: -0.634%
27 | CN(C)C1(CNC(=O)c2ccccc2[N+](=O)[O-])CCCCC1 | inactive: 1.77%
28 | Cc1ccccc1C(=O)NCC1(N2CCCCC2)CCCCC1 | inactive: -3.65%
29 | CCCCOc1ccccc1C(=O)NCC1(N(C)C)CCCCC1 | inactive: 2.11%
30 | O=C(NCC1(N2CCCCC2)CCCCC1)c1cc(F)c(F)cc1Cl | inactive: -10.4%
31 | C=CCN1CCN(CCOC(=O)C(O)(c2ccccc2)c2ccccc2)CC1 | inactive: 20.8%
32 | CCOc1cccc(C(=O)NCC2(N(C)C)CCCCC2)c1 | inactive: -20.2%
33 | COc1ccc(C(=O)NCC2(N(C)C)CCCCC2)cc1 | inactive: 3.54%
34 | O=C(NCC1(N2CCCCC2)CCCCC1)c1cccc(Br)c1 | inactive: -4.98%
35 | Cc1cc(C(=O)NCC2(N3CCCCC3)CCCCC2)ccc1[N+](=O)[O-] | inactive: 4.2%
36 | CCN1CCCC(OC(=O)C2(O)c3ccccc3C=Cc3ccccc32)C1 (stereo unspecified) | inactive: 8.44%
